{"sequences": {"note": "Chains of the proteins cited; added tags and fusions are not shown. Lines headed by an entry give the natural chain unless they say otherwise; changes in a name come on top. Residues count along the entry.", "UniProt P43116": "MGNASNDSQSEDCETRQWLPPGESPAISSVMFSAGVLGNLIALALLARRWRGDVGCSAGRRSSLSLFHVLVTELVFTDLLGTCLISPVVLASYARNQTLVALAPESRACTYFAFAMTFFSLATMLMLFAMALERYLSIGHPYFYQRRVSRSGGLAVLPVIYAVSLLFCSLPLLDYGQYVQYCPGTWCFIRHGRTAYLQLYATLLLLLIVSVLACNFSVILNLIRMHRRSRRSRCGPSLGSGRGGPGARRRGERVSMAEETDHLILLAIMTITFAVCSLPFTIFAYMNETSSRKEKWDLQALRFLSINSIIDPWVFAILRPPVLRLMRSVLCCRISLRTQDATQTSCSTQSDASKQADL", "UniProt O60895, 43-175": "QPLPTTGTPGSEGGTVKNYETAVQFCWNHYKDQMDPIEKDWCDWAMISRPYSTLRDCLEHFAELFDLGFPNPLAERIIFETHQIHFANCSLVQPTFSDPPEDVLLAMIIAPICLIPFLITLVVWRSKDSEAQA", "UniProt Q16602, 23-461": "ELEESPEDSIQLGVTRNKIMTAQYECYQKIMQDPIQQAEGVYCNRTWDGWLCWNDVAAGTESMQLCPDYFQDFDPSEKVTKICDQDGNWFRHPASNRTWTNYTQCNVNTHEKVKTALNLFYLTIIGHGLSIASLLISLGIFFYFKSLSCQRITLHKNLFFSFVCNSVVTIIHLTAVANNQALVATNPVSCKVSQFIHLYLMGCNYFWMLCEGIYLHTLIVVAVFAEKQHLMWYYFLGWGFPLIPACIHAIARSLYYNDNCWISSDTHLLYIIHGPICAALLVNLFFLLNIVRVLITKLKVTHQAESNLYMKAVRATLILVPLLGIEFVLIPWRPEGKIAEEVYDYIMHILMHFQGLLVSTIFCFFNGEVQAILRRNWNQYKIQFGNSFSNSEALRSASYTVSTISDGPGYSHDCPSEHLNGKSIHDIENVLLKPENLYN", "UniProt O60896, 24-148": "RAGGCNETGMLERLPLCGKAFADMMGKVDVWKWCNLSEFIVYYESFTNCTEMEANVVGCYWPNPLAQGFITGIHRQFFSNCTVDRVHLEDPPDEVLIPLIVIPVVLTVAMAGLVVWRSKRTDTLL", "UniProt P47871, 26-477": "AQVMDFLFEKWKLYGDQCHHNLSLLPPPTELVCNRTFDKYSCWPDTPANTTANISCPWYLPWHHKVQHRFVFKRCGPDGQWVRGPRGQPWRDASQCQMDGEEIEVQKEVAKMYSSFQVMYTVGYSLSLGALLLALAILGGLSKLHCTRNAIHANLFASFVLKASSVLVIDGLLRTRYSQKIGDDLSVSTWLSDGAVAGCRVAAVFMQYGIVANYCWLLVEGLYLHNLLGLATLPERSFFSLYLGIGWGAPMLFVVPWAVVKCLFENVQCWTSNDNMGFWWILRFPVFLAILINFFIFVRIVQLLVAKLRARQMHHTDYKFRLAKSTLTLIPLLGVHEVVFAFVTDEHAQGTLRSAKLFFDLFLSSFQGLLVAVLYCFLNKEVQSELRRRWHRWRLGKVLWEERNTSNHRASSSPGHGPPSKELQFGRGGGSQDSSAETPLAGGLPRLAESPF"}, "source": "paper PMC10771525", "about": "(Communications Biology, 2024)", "test_in_all_cases": "GPCR panel (control), Arrestin, CHO-K1", "type_in_all_cases": "cell-based", "details_in_all_cases": "reference agonist", "key": {"PTGER2": {"target": "PTGER2 (Homo sapiens, UniProt P43116)"}, "CALCRL + RAMP2": {"target": "T1, CALCRL + RAMP2 (Homo sapiens, UniProt O60895+Q16602)", "T1 construct": "expressed in transfected cells; host or cells: CHO-K1"}, "CALCRL + RAMP3": {"target": "T2, CALCRL + RAMP3 (Homo sapiens, UniProt O60896+Q16602)", "T2 construct": "expressed in transfected cells; host or cells: CHO-K1"}, "AGTRL1": {"target": "T3, AGTRL1 (Homo sapiens, UniProt P35414)", "T3 construct": "expressed in transfected cells; host or cells: CHO-K1", "T3 sequence (P35414 1-380)": "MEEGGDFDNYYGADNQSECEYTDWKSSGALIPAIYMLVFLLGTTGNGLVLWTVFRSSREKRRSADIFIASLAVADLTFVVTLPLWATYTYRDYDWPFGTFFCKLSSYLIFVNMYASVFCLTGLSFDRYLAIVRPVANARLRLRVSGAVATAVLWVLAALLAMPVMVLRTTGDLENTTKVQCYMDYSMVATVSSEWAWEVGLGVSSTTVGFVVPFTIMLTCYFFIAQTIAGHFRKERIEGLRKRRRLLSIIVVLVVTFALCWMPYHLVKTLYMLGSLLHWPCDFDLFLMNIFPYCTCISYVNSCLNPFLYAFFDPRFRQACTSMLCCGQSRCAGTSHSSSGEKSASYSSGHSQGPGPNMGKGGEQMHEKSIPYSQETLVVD"}, "GCGR": {"target": "T4, GCGR (Homo sapiens, UniProt P47871)", "T4 construct": "expressed in transfected cells; host or cells: CHO-K1"}, "PRLHR": {"target": "T5, PRLHR (Homo sapiens, UniProt P49683)", "T5 construct": "expressed in transfected cells; host or cells: CHO-K1", "T5 sequence (P49683 1-370)": "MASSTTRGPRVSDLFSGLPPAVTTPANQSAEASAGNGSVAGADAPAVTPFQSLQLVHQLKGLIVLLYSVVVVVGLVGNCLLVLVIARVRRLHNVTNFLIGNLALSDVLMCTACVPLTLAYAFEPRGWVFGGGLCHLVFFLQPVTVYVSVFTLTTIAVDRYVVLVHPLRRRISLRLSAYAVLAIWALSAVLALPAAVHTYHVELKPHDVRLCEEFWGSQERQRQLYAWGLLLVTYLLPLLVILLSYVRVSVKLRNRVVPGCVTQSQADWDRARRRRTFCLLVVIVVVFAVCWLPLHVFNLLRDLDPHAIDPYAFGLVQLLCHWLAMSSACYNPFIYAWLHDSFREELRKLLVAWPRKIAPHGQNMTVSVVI"}}, "data": [{"molecule": "CCCCC[C@H](O)/C=C/[C@H]1[C@H](O)CC(=O)[C@@H]1C/C=C\\CCCC(=O)O", "note": "[Prostaglandin E2]", "values": [{"measurement": "EC50", "setting": "PTGER2", "result": 1.2, "unit": "µM"}]}, {"molecule": "Adrenomedullin", "values": [{"measurement": "EC80", "setting": "CALCRL + RAMP2", "result": 0.15, "unit": "µM"}, {"measurement": "EC80", "setting": "CALCRL + RAMP3", "result": 0.1, "unit": "µM"}]}, {"molecule": "Apelin-13", "values": [{"measurement": "EC80", "setting": "AGTRL1", "result": 0.16, "unit": "µM"}]}, {"molecule": "Glucagon", "values": [{"measurement": "EC80", "setting": "GCGR", "result": 0.32, "unit": "µM"}]}, {"molecule": "PrRP-31", "values": [{"measurement": "EC80", "setting": "PRLHR", "result": 0.034, "unit": "µM"}]}]}
